ChEMBL document CHEMBL1129980, “New non-peptide endothelin-A receptor antagonists: synthesis, biological properties, and structure-activity relationships of 5-(dimethylamino)-N-pyridyl-,-N-pyrimidinyl-,-N-pyridazinyl-, and -N-pyrazinyl-1-naphthalenesulfonamides” (J Med Chem, 1997)

The chains behind the UniProt entries cited, without tags or fusion partners.
UniProt P25101, whole entry: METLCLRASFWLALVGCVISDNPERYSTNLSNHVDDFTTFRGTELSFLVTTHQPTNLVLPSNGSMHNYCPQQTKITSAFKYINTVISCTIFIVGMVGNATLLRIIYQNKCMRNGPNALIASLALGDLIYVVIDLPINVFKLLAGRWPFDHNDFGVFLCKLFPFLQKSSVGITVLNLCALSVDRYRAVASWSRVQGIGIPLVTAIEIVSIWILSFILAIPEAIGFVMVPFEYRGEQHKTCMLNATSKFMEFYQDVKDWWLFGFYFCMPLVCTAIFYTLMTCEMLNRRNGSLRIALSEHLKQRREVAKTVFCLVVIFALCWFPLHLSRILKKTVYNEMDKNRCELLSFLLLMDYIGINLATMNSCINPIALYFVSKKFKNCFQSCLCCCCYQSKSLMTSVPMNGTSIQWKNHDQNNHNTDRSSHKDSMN

Target: Endothelin-1 receptor (Homo sapiens, UniProt P25101)
Assay: Inhibition of specific binding of [125-I]ET-1 to human endothelin A receptor

CN(C)c1cccc2c(S(=O)(=O)Nc3ncccn3)cccc12
IC50: 6.31 µM
